## Apparent affinities of Ab-14 variants for a coronavirus HR2 peptide

Target peptide (SARS-CoV-2 spike, HR2 region): PDVDLGDISGINAS

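The parent was found by panning a naive human phage display library on the peptide. The library (AAYL50) carries one to three amino acid substitutions per variant, with no insertions or deletions. The assay is AlphaSeq: two haploid yeast populations carry antibody and antigen on their surface. The frequency of each diploid, read from paired DNA barcodes, reflects how well the two displayed proteins bind. Read counts were normalised to the haploid input and turned into Kd by a linear fit to BCL2-family pairs of known affinity, for each replicate. The assay was run in three technical replicates.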

Each scFv is VH, the linker GGGGSGGGGSGGGGS, VL, as in the parent Ab-14, and differs from it in the CDRs of the light chain only.
VH: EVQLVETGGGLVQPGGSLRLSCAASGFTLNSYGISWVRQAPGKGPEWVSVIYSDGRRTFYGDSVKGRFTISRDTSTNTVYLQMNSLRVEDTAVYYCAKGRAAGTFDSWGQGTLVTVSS
VL: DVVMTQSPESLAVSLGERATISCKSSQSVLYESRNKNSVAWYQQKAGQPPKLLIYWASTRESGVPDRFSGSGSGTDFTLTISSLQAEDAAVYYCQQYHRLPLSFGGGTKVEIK

Variants are written as CDR1, CDR2 and CDR3 of the light chain (limits as in the source). Parent: KSSQSVLYESRNKNSVA, WASTRES, QQYHRLPLS.
Numbers give log10(Kd / nM), so 0 is 1 nM and 3 is 1 µM. Smaller is tighter.
A mean of the replicates is given; it leaves out those without a signal.
"no signal" marks a missing value. The strain was present, yet no cells mated with the target were sequenced in any replicate, which points to weak or no binding.
Empty control strains, which show no peptide, gave a signal in 18% of pairings with library AAYL50; the median was 4.19 and 95% of these signals were weaker than 2.99. No background was subtracted.
For reference, the parent read 0.65 as the reference entry and 1.68 as a member of this library.

{"CDR-L1": "KSSQSVLYESRNKNSGA", "CDR-L2": "WASTRES", "CDR-L3": "QQYHYLPLS", "log10 Kd (nM), mean": "3.75", "detected": "1/3"}
{"CDR-L1": "KSSQSVLYESWNKNSVA", "CDR-L2": "WASNRES", "CDR-L3": "QQYHRLPYS", "log10 Kd (nM), mean": "no signal", "detected": "0/3"}
{"CDR-L1": "KSSQSVLYHSRNKNSVA", "CDR-L2": "QASTRPS", "CDR-L3": "QQYHRLPLS", "log10 Kd (nM), mean": "1.35", "detected": "3/3"}
{"CDR-L1": "KSSQSVVYEIRNKNPVA", "CDR-L2": "WASTRES", "CDR-L3": "QQYHRLPLS", "log10 Kd (nM), mean": "2.56", "detected": "3/3"}
{"CDR-L1": "KSMQSVLYESRNKGSVA", "CDR-L2": "WASTRES", "CDR-L3": "QQYHRLPLS", "log10 Kd (nM), mean": "2.20", "detected": "3/3"}
{"CDR-L1": "KNSQSVLYESENKNSVL", "CDR-L2": "WASTRES", "CDR-L3": "QQYHRLPLS", "log10 Kd (nM), mean": "5.87", "detected": "1/3"}
{"CDR-L1": "KCSQSVLYESRNKNSVE", "CDR-L2": "WASTRES", "CDR-L3": "QQSHRLPLS", "log10 Kd (nM), mean": "3.85", "detected": "1/3"}
{"CDR-L1": "KSSQSVLQESRNKNSVA", "CDR-L2": "DASTRES", "CDR-L3": "QQYHRLPLS", "log10 Kd (nM), mean": "-0.29", "detected": "3/3"}
{"CDR-L1": "KSSQSVLYESRNKKSVL", "CDR-L2": "WCSTRES", "CDR-L3": "QQYHRLPLS", "log10 Kd (nM), mean": "no signal", "detected": "0/3"}
{"CDR-L1": "KSSQSVLYESVNKNQVA", "CDR-L2": "WASTRES", "CDR-L3": "QQYHRLPGS", "log10 Kd (nM), mean": "no signal", "detected": "0/3"}
{"CDR-L1": "KSSQSVLQESRNKNSVA", "CDR-L2": "WASTRES", "CDR-L3": "QQYHNLVLS", "log10 Kd (nM), mean": "no signal", "detected": "0/3"}
{"CDR-L1": "KSSQSVLYEWRNKNSVA", "CDR-L2": "WASTRES", "CDR-L3": "QQYHRLPES", "log10 Kd (nM), mean": "3.78", "detected": "2/3"}
{"CDR-L1": "KSSQSVLYESRNKNSVA", "CDR-L2": "WAPTPES", "CDR-L3": "QQYHRIPLS", "log10 Kd (nM), mean": "3.64", "detected": "1/3"}
{"CDR-L1": "KSSQSVLYESRNKISVA", "CDR-L2": "WASTPES", "CDR-L3": "QQYHRLPLS", "log10 Kd (nM), mean": "no signal", "detected": "0/3"}
{"CDR-L1": "KSAQSVLYESRNKNSVA", "CDR-L2": "WASKGES", "CDR-L3": "QQYHRLPLS", "log10 Kd (nM), mean": "no signal", "detected": "0/3"}
{"CDR-L1": "KSSQSVNYESRNKYSVA", "CDR-L2": "WASTRES", "CDR-L3": "QQYHRLPLS", "log10 Kd (nM), mean": "1.59", "detected": "3/3"}
{"CDR-L1": "KSSQSVLYESRNKNSIA", "CDR-L2": "WWSTRES", "CDR-L3": "QQYHRMPLS", "log10 Kd (nM), mean": "4.11", "detected": "1/3"}
{"CDR-L1": "KSSQSVLYESRNKNWVA", "CDR-L2": "WIETRES", "CDR-L3": "QQYHRLPLS", "log10 Kd (nM), mean": "no signal", "detected": "0/3"}
{"CDR-L1": "KSSTSVMYESRNKNSVA", "CDR-L2": "WASTRES", "CDR-L3": "QQYHRVPLS", "log10 Kd (nM), mean": "no signal", "detected": "0/3"}
{"CDR-L1": "KSSQSVLYESRNKNSVA", "CDR-L2": "WVSTREA", "CDR-L3": "QQNHRLPLS", "log10 Kd (nM), mean": "1.59", "detected": "3/3"}

Extract of 3 entries:

CDR-L1,CDR-L2,CDR-L3,"log10 Kd (nM), mean",detected
KNSQSVLYESENKNSVL,WASTRES,QQYHRLPLS,5.87,1/3
KSSQSVLYHSRNKNSVA,QASTRPS,QQYHRLPLS,1.35,3/3
KSSQSVNYESRNKYSVA,WASTRES,QQYHRLPLS,1.59,3/3

From the AlphaSeq antibody data of Engelhart et al. 2022 (doi:10.1038/s41597-022-01779-4), copy in the FLAb collection.